Drawing on patent US6936585B2, “Corticotropin releasing factor 2 receptor agonists” (priority 2002, dated 2005), this text covers Emax and EC50 for six compounds.

Assay [1] concerns the target T1, CRF2R (Homo sapiens, UniProt Q13324).
T1 sequence (Q13324 1-411): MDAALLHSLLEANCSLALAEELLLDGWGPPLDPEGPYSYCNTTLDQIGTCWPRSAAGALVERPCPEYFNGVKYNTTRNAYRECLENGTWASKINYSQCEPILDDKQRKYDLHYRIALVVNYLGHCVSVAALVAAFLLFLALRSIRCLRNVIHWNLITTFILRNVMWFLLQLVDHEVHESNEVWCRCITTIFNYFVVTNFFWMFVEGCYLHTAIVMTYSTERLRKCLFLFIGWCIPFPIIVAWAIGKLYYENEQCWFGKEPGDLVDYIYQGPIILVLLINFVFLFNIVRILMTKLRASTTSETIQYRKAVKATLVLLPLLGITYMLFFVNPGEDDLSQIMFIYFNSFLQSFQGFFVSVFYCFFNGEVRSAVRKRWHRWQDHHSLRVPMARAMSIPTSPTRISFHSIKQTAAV
The experiment in a line: CRF2R agonist activation (EC50 / Emax), called comparative CRF binding. The following applies: for Emax: read-out: CRF2R Emax. It is filed as cell-based. An outline of the steps:
(§1)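 Receptor-expressing cells are contacted with test peptide or the vehicle it is dissolved in. Lysates are then assayed for cAMP, or expression of a CRE-coupled reporter is quantitated. Engineered cells carrying receptor-G-protein fusions may replace full-length receptors.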

The target in assay [2] is T2, CRF1R (Homo sapiens, UniProt P34998).
T2 sequence (P34998 24-415): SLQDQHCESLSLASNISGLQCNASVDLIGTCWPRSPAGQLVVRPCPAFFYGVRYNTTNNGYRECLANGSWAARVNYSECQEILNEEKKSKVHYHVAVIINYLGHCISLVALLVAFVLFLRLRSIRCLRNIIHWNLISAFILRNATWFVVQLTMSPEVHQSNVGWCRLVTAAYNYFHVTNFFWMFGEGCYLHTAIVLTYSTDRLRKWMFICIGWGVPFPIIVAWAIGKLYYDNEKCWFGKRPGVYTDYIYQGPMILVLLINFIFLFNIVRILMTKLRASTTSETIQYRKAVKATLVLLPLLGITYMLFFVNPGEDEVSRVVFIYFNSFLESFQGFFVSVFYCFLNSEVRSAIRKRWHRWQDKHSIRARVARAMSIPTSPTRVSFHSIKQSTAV
The experiment in a line: CRF1R agonist activation (EC50 / Emax), called comparative CRF binding. Format: cell-based. The following applies: for Emax: read-out: CRF1R Emax. In a few lines:
as §1

One may read the Emax as the size of the effect at its maximum, as opposed to the concentration needed. In the case of `CC[C@H](C)[C@H](NC(=O)[C@H](CCC(=O)O)NC(=O)[C@@H](NC(=O)[C@H](CCSC)NC(=O)[C@H](CCCCN)NC(=O)[C@H](CCCNC(=N)N)NC(=O)[C@H](CC(C)C)NC(=O)[C@H](CC(C)C)NC(=O)[C@H](CCC(N)=O)NC(=O)[C@H](Cc1ccccc1)NC(=O)[C@@H]1CCCN1C(=O)[C@H](CC(C)C)NC(=O)[C@H](CC(=O)O)NC(=O)[C@@H](NC(=O)[C@H](CO)NC(=O)[C@@H](NC(=O)[C@@H]1CCCN1C(=O)[C@@H]1CCCN1C(=O)CNC(=O)[C@@H]1CCC(=O)N1)[C@@H](C)CC)[C@@H](C)CC)[C@@H](C)CC)C(=O)N[C@@H](CCC(=O)O)C(=O)N[C@@H](CCCCN)C(=O)N[C@@H](CCC(N)=O)C(=O)N[C@@H](CCC(=O)O)C(=O)N[C@@H](CCCCN)C(=O)N[C@@H](CCC(=O)O)C(=O)N[C@@H](CCCCN)C(=O)N[C@@H](CCC(N)=O)C(=O)N[C@@H](CCC(N)=O)C(=O)N[C@@H](C)C(=O)N[C@H](C(=O)N[C@H](C(=O)N[C@@H](CC(N)=O)C(=O)N[C@@H](CCCNC(=N)N)C(=O)N[C@@H](CC(C)C)C(=O)N[C@@H](CC(C)C)C(=O)N[C@@H](CC(C)C)C(=O)N[C@@H](CC(=O)O)C(=O)N[C@@H](CCCNC(=N)N)C(=O)N[C@H](C(N)=O)C(C)C)[C@@H](C)O)[C@@H](C)O` [compound 18], the maximum response (Emax) in assay [1] came to 97%; in assay [2], 100%.

For the compound `CC[C@H](C)[C@H](NC(=O)[C@@H](NC(=O)[C@H](CC(=O)O)NC(=O)[C@H](CC(C)C)NC(=O)[C@H](CC(C)C)NC(=O)[C@H](CC(C)C)NC(=O)[C@H](CCCNC(=N)N)NC(=O)[C@H](CC(N)=O)NC(=O)[C@H](CC(N)=O)NC(=O)[C@H](C)NC(=O)[C@H](C)NC(=O)[C@H](CCC(N)=O)NC(=O)[C@H](CCC(N)=O)NC(=O)[C@H](CCCCN)NC(=O)[C@H](CCC(=O)O)NC(=O)[C@H](CCCCN)NC(=O)[C@H](CCC(=O)O)NC(=O)[C@H](CCC(N)=O)NC(=O)[C@H](CCCCN)NC(=O)[C@H](CCC(=O)O)NC(=O)[C@@H](NC(=O)[C@H](CCC(=O)O)NC(=O)[C@@H](NC(=O)[C@H](CCSC)NC(=O)[C@H](CCCCN)NC(=O)[C@H](CCCNC(=N)N)NC(=O)[C@H](CC(C)C)NC(=O)[C@H](CC(C)C)NC(=O)[C@H](CCCCN)NC(=O)[C@@H](NC(=O)[C@@H]1CCCN1C(=O)[C@H](CC(C)C)NC(=O)[C@H](CC(=O)O)NC(=O)[C@@H](NC(=O)[C@H](CO)NC(=O)[C@@H](NC(=O)[C@@H]1CCCN1C(=O)[C@@H]1CCCN1C(=O)CNC(=O)[C@@H]1CCC(=O)N1)[C@@H](C)CC)[C@@H](C)CC)[C@@H](C)O)[C@@H](C)CC)[C@@H](C)CC)[C@@H](C)O)C(N)=O` [compound 45], the Emax in assay [1] is 44%; in assay [2], 7%.

By EC50 is commonly meant the concentration giving half of the maximal effect. High values mean a need for much substance, low ones an effect from little substance. Consider `CC[C@H](C)[C@H](NC(=O)[C@@H](NC(=O)[C@H](CC(=O)O)NC(=O)[C@H](CC(C)C)NC(=O)[C@H](CC(C)C)NC(=O)[C@H](CC(C)C)NC(=O)[C@H](C)NC(=O)[C@H](CC(N)=O)NC(=O)[C@H](CC(N)=O)NC(=O)[C@H](C)NC(=O)[C@H](C)NC(=O)[C@H](CCC(N)=O)NC(=O)[C@H](CCC(N)=O)NC(=O)[C@H](CCCCN)NC(=O)[C@H](CCC(=O)O)NC(=O)[C@H](CCCCN)NC(=O)[C@H](CCC(=O)O)NC(=O)[C@H](CCC(N)=O)NC(=O)[C@H](CCCCN)NC(=O)[C@H](CCC(=O)O)NC(=O)[C@@H](NC(=O)[C@H](CCC(=O)O)NC(=O)[C@@H](NC(=O)[C@@H](NC(=O)[C@H](CCCCN)NC(=O)[C@H](CCCNC(=N)N)NC(=O)[C@H](CC(C)C)NC(=O)[C@H](CC(C)C)NC(=O)[C@H](Cc1c[nH]cn1)NC(=O)[C@H](Cc1ccc(O)cc1)NC(=O)[C@@H]1CCCN1C(=O)[C@H](CC(C)C)NC(=O)[C@H](CC(=O)O)NC(=O)[C@@H](NC(=O)[C@H](CO)NC(=O)[C@@H](NC(=O)[C@@H]1CCCN1C(=O)[C@@H]1CCCN1C(=O)CNC(=O)[C@@H]1CCC(=O)N1)[C@@H](C)CC)[C@@H](C)CC)C(C)C)[C@@H](C)CC)[C@@H](C)CC)[C@@H](C)O)C(N)=O` [compound 312], for which the figures for the concentration for a half-maximal effect (EC50) in assay [1] and in assay [2] (CRF1R EC50) were 0.0141 µM and 0.87 µM, respectively. Also, the Emax in assay [1] stood at 95%; in assay [2], 62%.

For `CC[C@H](C)[C@H](NC(=O)[C@H](CCCNC(=N)N)NC(=O)[C@H](C)NC(=O)[C@H](CC(N)=O)NC(=O)[C@@H](NC(=O)[C@@H](NC(=O)[C@H](C)NC(=O)[C@H](CCC(N)=O)NC(=O)[C@H](CCC(N)=O)NC(=O)[C@H](CCCCN)NC(=O)[C@H](CCC(=O)O)NC(=O)[C@H](CCCCN)NC(=O)[C@H](CCC(=O)O)NC(=O)[C@H](CCC(N)=O)NC(=O)[C@H](CCCCN)NC(=O)[C@H](CCC(=O)O)NC(=O)[C@@H](NC(=O)[C@H](CCC(=O)O)NC(=O)[C@@H](NC(=O)[C@H](CCSC)NC(=O)[C@H](CCCCN)NC(=O)[C@H](CCCNC(=N)N)NC(=O)[C@H](CC(C)C)NC(=O)[C@H](CC(C)C)NC(=O)[C@H](Cc1c[nH]cn1)NC(=O)[C@H](CC(C)C)NC(=O)[C@@H]1CCCN1C(=O)[C@H](CC(C)C)NC(=O)[C@H](CC(=O)O)NC(=O)[C@@H](NC(=O)[C@H](CO)NC(=O)[C@@H](NC(=O)[C@@H]1CCCN1C(=O)[C@@H]1CCCN1C(=O)CNC(=O)[C@@H]1CCC(=O)N1)[C@@H](C)CC)[C@@H](C)CC)[C@@H](C)CC)[C@@H](C)CC)[C@@H](C)O)[C@@H](C)O)C(=O)N[C@@H](CC(C)C)C(=O)N[C@@H](C)C(=O)N[C@@H](CCCNC(=N)N)C(=O)N[C@H](C(N)=O)C(C)C` [compound 145], the figures for the maximal effect (Emax) in assay [1] and in assay [2] were 69% and 91.3%, respectively.

With `CC[C@H](C)[C@H](NC(=O)[C@@H](NC(=O)[C@H](CC(=O)O)NC(=O)[C@H](CC(C)C)NC(=O)[C@H](CC(C)C)NC(=O)[C@H](CC(C)C)NC(=O)[C@H](CCCNC(=N)N)NC(=O)[C@H](CC(N)=O)NC(=O)[C@H](CC(N)=O)NC(=O)[C@H](C)NC(=O)[C@H](C)NC(=O)[C@H](CCC(N)=O)NC(=O)[C@H](CCC(N)=O)NC(=O)[C@H](CCCCN)NC(=O)[C@H](CCC(=O)O)NC(=O)[C@H](CCCCN)NC(=O)[C@H](CCC(=O)O)NC(=O)[C@H](CCC(N)=O)NC(=O)[C@H](CCCCN)NC(=O)[C@H](CCC(=O)O)NC(=O)[C@@H](NC(=O)[C@H](CCC(=O)O)NC(=O)[C@@H](NC(=O)[C@H](CCSC)NC(=O)[C@H](CCCCN)NC(=O)[C@H](CCCNC(=N)N)NC(=O)[C@H](CC(C)C)NC(=O)[C@H](CC(C)C)NC(=O)[C@H](Cc1ccccc1)NC(=O)[C@H](CCC(N)=O)NC(=O)[C@@H]1CCCN1C(=O)[C@H](CC(C)C)NC(=O)[C@H](CC(=O)O)NC(=O)[C@@H](NC(=O)[C@H](CO)NC(=O)[C@@H](NC(=O)[C@@H]1CCCN1C(=O)[C@@H]1CCCN1C(=O)CNC(=O)[C@@H]1CCC(=O)N1)[C@@H](C)CC)[C@@H](C)CC)[C@@H](C)CC)[C@@H](C)CC)[C@@H](C)O)C(N)=O` [compound 221], the maximum response (Emax) in assay [1] and in assay [2] was 100% each time.

Take `CC[C@H](C)[C@H](NC(=O)[C@H](CCCNC(=N)N)NC(=O)[C@H](C)NC(=O)[C@H](CC(N)=O)NC(=O)[C@@H](NC(=O)[C@@H](NC(=O)[C@H](C)NC(=O)[C@H](CCC(N)=O)NC(=O)[C@H](CCC(N)=O)NC(=O)[C@H](CCCCN)NC(=O)[C@H](CCC(=O)O)NC(=O)[C@H](CCCCN)NC(=O)[C@H](CCC(=O)O)NC(=O)[C@H](CCC(N)=O)NC(=O)[C@H](CCCCN)NC(=O)[C@H](CCC(=O)O)NC(=O)[C@@H](NC(=O)[C@H](CCC(=O)O)NC(=O)[C@@H](NC(=O)[C@@H](NC(=O)[C@H](CCCCN)NC(=O)[C@H](CCCNC(=N)N)NC(=O)[C@H](CC(C)C)NC(=O)[C@H](CC(C)C)NC(=O)[C@H](CCC(N)=O)NC(=O)[C@H](CC(C)C)NC(=O)[C@@H]1CCCN1C(=O)[C@H](CC(C)C)NC(=O)[C@H](CC(=O)O)NC(=O)[C@@H](NC(=O)[C@H](CO)NC(=O)[C@@H](NC(=O)[C@@H]1CCCN1C(=O)[C@@H]1CCCN1C(=O)CNC(=O)[C@@H]1CCC(=O)N1)[C@@H](C)CC)[C@@H](C)CC)C(C)C)[C@@H](C)CC)[C@@H](C)CC)[C@@H](C)O)[C@@H](C)O)C(=O)N[C@@H](CC(C)C)C(=O)N[C@@H](C)C(=O)N[C@@H](CCCNC(=N)N)C(=O)N[C@H](C(N)=O)C(C)C` [compound 320]: the figures for the maximum response (Emax) in assay [1] and in assay [2] were 100% and 68.8%, respectively.
